Laboratory results from publication PMC3702509, “Label Free Fragment Screening Using Surface Plasmon Resonance as a Tool for Fragment Finding – Analyzing Parkin, a Difficult CNS Target” (PLoS ONE, 2013).

Experiments:
[1] = target: T1, FL-FLAG-Parkin (full-length Parkin with N-terminal 3xFLAG and TEV site) (human), O60260; experiment: SPR; thermal treated (56°C) FL-FLAG Parkin captured on amine-coupled anti-FLAG M2 antibody on a CM5 chip; protein ligands injected; 25°C; 10 mM HEPES pH 7.4, 150 mM NaCl, 0.005% Tween-20, 4 mM reducing agent; 1:1 binding model; conditions: remark: other sources report otherwise
[2] = target: T1, FL-FLAG-Parkin (full-length Parkin with …); experiment: SPR; non-thermal treated (RT) FL-FLAG Parkin captured on amine-coupled anti-FLAG M2 antibody on a CM5 chip at 3:1 (Parkin:Ab); protein ligands injected in dilution series; 25°C; 10 mM HEPES pH 7.4, 150 mM NaCl, 0.005% Tween-20, 4 mM reducing agent; 1:1 binding model; Biacore T100 or T200; conditions: remark: other sources report otherwise

B1: His-tagged ubiquitin-like domain of Parkin (UblD, residues 1-76), O60260-1 1-76 (domain or fragment)
chain: MIVFVRFNSSHGFPVEVDSDTSIFQLKEVVAKRQGVPADQLRVIFAGKELRNDWTVQNCDLDQQSIVHIVQRPWRK
Kd [1]: 7.4 µM
Kd [2]: 5.4 µM
dissociation time (printed beside kd) [2]: 2 min
